The nature of experiment [1]: Hypothermic responses of AChE transgenic versus control mice to drugs. To be noted: single agonist.
For experiment [2], the system named is human erythrocyte AChE, human serum BChE, Drosophila nervous system ChE. The conditions noted are these: in vitro; Loewenstein et al., 1993; cited from earlier work.
The subject of experiment [3] is milk cholinesterases (BuChE predominant). Put plainly: Acetylthiocholine hydrolysis by milk cholinesterases with or without iso-OMPA. The conditions noted are these: Iso OMPA 10 Mμ; milk of control mice and hAChE-E6 transgenics (35 nmol ATCh/minute/ml).
The target of experiment [4] is recombinant human (rH) AChE (Homo sapiens, UniProt P22303). Put plainly: Selective inhibition of AChE in embryo homogenates by ecothiophate. To be noted: ecothiophate 3.3×10−7 M; value assumed in the algorithm.
Experiment [5] concerns endogenous frog (Fr) AChE. The description is as above. To be noted: ecothiophate 3.3×10−7 M; value assumed in the algorithm.

By UniProt entry, the sequences of proteins in these tests, tags left out. Where a name states a change or a piece, a line headed by the entry shows the natural chain unless it says otherwise.
UniProt P22303: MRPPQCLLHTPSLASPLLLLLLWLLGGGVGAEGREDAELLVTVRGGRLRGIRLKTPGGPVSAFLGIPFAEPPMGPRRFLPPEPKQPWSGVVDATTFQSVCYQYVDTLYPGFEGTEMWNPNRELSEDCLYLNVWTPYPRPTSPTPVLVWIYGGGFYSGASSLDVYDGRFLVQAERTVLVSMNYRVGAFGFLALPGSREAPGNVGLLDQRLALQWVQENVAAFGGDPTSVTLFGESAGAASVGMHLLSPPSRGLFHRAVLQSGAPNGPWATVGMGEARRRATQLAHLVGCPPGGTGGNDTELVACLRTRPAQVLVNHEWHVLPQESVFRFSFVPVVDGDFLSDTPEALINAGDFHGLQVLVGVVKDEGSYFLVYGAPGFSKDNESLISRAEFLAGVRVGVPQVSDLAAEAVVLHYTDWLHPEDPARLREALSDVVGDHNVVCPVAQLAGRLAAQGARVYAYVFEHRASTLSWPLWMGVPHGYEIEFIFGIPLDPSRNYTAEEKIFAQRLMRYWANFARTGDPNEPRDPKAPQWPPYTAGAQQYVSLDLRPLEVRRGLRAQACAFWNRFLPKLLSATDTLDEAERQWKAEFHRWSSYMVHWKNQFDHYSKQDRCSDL

In the case of `Clc1cccc(Cl)c1N=C1NCCN1`, the “hypothermic response of transgenic compared with control mice” value in experiment [1] is recorded as “no difference”. Regarding `CNC(=O)Oc1cccc2c1OC(C)(C)C2`, in experiment [2], the “toxicity to ChEs among six N-methyl carbamates” value is recorded as “most toxic”.

For the compound `CC(C)NP(=O)(NC(C)C)OP(=O)(NC(C)C)NC(C)C`, the “inhibition of ATCh hydrolysing activity of milk” value in experiment [3] is recorded as “over 80%”. For the compound 8-OH-DPAT, the “hypothermic response of transgenic compared with control mice” value in experiment [1] is listed as “relative resistance”.

For `CN1CCCC1c1cccnc1` (centres unmarked), the “hypothermic response of transgenic compared with control mice” value in experiment [1] is “relative resistance”. Still for that read-out and setting: to `O=C1CCCN1CC#CCN1CCCC1` belongs “relative resistance”. Turning to ecothiophate, the “inhibition of rHAChE” value in experiment [4] is recorded as 90%. Besides, in experiment [5], the “inhibition of frog AChE” value came to 20%.

Source of the values: US6987211B1, “Transgenic non-human mammals producing a cholinesterase in their milk” (dated 2006).
